## Antibody variant affinities, Ab-91 heavy chain, assay 2

The measurements come from Engelhart et al. 2022 (doi:10.1038/s41597-022-01779-4) through the FLAb antibody collection.

The target is the same throughout: PDVDLGDISGINAS, from the HR2 region of SARS-CoV-2 spike.

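Library AAYL51 holds single substitutions and randomly drawn double and triple substitutions in the CDRs. The assay is AlphaSeq: two haploid yeast populations carry antibody and antigen on their surface. Mating (16 h, 30 °C) was followed by selection of diploids and sequencing of their barcodes. Scores were corrected for input abundance and mapped to Kd with protein pairs of known affinity run in the same pool. Each pool was mated in three replicate cultures.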

The variants keep the light chain, the linker and the frameworks of Ab-91 (scFv order VL, a (GGGGS)3 linker, VH).
VL: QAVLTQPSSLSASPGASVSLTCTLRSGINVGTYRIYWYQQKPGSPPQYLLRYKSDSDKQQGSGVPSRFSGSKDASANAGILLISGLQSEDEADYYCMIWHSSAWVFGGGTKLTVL
VH: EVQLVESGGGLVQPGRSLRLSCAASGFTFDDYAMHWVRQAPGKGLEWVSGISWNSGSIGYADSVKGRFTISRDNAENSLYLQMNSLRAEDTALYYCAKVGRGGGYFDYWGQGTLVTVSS

The whole VH of each variant is written out.
Numbers give log10(Kd / nM), so 0 is 1 nM and 3 is 1 µM. Smaller is tighter.
A mean of the replicates is given; it leaves out those without a signal.
Where no diploid with the target was found in that replicate, the entry reads "n.d.": below detection, most likely a poor binder, though not proof of it.
For reference, the parent read 1.86 as the reference entry and 0.88 as a member of this library.

| # | VH | log10 Kd, replicates | log10 Kd (nM), mean | control signals |
|---|---|---|---|---|
| 1 | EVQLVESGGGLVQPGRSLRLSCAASGFTFDLYAMHWVRQAPGKGLEWVSGISWNIGSIGYDDSVKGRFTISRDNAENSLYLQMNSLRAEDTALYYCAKVGRGGGYFDYWGQGTLVTVSS | 3.16 n.d. n.d. | 3.16 | 0 of 9 |
| 2 | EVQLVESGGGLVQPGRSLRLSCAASLFTFDDYAMGWVRQAPGKGLEWVSGISWNSGSIGEADSVKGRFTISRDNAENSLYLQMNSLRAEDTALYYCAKVGRGGGYFDYWGQGTLVTVSS | n.d. n.d. n.d. | n.d. | 2 of 9 (2.56) |
| 3 | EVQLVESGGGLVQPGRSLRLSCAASGFTFDDYAMHWVRQAPGKGLEWVSGISWMSGLIGYADSVKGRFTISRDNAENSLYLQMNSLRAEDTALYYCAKVGRGGGYFQYWGQGTLVTVSS | 3.69 n.d. n.d. | 3.69 | 2 of 9 (4.62) |
| 4 | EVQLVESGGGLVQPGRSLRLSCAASGFTFDDYAMKWVRQAPGKGLEWVSGISWNSGSIGYADSWKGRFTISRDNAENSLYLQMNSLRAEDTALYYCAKVGRGGGYMDYWGQGTLVTVSS | n.d. n.d. n.d. | n.d. | 0 of 9 |
| 5 | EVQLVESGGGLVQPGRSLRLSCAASGPTFDDYAMHWVRQAPGKGLEWVSGISCWSGSIGYADSVKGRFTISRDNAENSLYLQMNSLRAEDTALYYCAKVGRGGGYFDYWGQGTLVTVSS | 3.62 n.d. n.d. | 3.62 | 1 of 9 (3.92) |
| 6 | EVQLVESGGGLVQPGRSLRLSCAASGFTFDDYAMHWVRQAPGKGLEWVSGASWNSGSIGYHDGVKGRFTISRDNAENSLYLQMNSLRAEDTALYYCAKVGRGGGYFDYWGQGTLVTVSS | n.d. 4.95 n.d. | 4.95 | 3 of 9 (4.16) |
| 7 | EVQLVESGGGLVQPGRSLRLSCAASGFTFDDYAMRWVRQAPGKGLEWVSGISWNSGSILYHDSVKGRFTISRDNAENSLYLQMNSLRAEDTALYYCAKVGRGGGYFDYWGQGTLVTVSS | 3.89 4.16 4.98 | 4.34 | 6 of 9 (4.72) |
| 8 | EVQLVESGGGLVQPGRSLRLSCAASGFTFDDYAMHWVRQAPGKGLEWVSGISWNSGSIIYADSVYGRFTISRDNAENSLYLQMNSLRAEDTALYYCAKVGRGGFYFDYWGQGTLVTVSS | n.d. n.d. n.d. | n.d. | 0 of 9 |
| 9 | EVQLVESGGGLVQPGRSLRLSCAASGFTFDDYAMHWVRQAPGKGLEWVSGISWNSTSIGYADSVKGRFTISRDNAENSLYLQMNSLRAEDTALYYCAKVGRGGHYFDYWGQGTLVTVSS | n.d. n.d. n.d. | n.d. | 0 of 9 |
| 10 | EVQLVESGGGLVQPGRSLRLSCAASGFTFDDYAMHWVRQAPGKGLEWVSGISWNSCSIYYADKVKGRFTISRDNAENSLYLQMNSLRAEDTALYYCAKVGRGGGYFDYWGQGTLVTVSS | n.d. n.d. n.d. | n.d. | 1 of 9 (2.29) |
| 11 | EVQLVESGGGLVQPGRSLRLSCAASGFTFDDYAGHWVRQAPGKGLEWVSGIFWNSTSIGYADSVKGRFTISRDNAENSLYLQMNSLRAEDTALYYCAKVGRGGGYFDYWGQGTLVTVSS | n.d. 4.58 n.d. | 4.58 | 1 of 9 (3.03) |
| 12 | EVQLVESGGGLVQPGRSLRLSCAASGMTFDDYAMHWVRQAPGKGLEWVSGISWNSGSIGYADSVKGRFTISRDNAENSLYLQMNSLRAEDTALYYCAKVVRGGPYFDYWGQGTLVTVSS | n.d. n.d. n.d. | n.d. | 1 of 9 (3.26) |
| 13 | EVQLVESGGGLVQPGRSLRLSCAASGFTYDDYAMHWVRQAPGKGLEWVSGISWNDGSIGYADSVKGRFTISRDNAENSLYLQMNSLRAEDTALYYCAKVQRGGGYFDYWGQGTLVTVSS | 3.91 n.d. n.d. | 3.91 | 1 of 9 (3.63) |
| 14 | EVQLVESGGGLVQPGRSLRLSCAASGFKFDDYAMHWVRQAPGKGLEWVSGISWNSGSIGYADSVKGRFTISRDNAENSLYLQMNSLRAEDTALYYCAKVVRGGGYFDWWGQGTLVTVSS | n.d. n.d. n.d. | n.d. | 0 of 9 |
| 15 | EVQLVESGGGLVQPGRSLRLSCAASGFTFDDYAMIWVRQAPGKGLEWVSGISWNSGSIGYADSVKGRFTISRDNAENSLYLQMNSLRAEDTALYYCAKVIRGGGYFTYWGQGTLVTVSS | n.d. n.d. n.d. | n.d. | 1 of 9 (3.84) |
| 16 | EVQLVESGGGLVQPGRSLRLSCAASGFTHDNYAMHWVRQAPGKGLEWVSGISWNDGSIGYADSVKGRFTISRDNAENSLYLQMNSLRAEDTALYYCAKVGRGGGYFDYWGQGTLVTVSS | n.d. 4.15 n.d. | 4.15 | 3 of 9 (4.90) |
| 17 | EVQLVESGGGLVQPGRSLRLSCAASGETFDDYAMHWVRQAPGKGLEWVSGISWNSGSIGYADSVDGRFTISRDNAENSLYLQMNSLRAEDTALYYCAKVGRGGGYFDYWGQGTLVTVSS | 3.83 4.27 n.d. | 4.05 | 1 of 9 (5.40) |
| 18 | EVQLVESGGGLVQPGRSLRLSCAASGFTFDDYAMHWVRQAPGKGLEWVSGISWNSGSIGYADSCTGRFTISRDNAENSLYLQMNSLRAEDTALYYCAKVGRGPGYFDYWGQGTLVTVSS | n.d. n.d. n.d. | n.d. | 0 of 9 |
| 19 | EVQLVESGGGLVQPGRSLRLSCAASGFTFDDYAMHWVRQAPGKGLEWVSCISWNSGSIGYADSVKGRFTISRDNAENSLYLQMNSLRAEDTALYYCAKVGRGGVYFDYWGQGTLVTVSS | n.d. n.d. 4.25 | 4.25 | 5 of 9 (4.22) |
| 20 | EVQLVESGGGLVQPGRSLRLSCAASGFMFDDYAMHWVRQAPGKGLEWVSGISKNSGSIGYAWSVKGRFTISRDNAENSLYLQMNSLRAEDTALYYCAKVGRGGGYFDYWGQGTLVTVSS | n.d. 3.19 n.d. | 3.19 | 1 of 9 (4.48) |
| 21 | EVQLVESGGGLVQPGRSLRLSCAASGFTFDDYAMHWVRQAPGKGLEWVSGISWNSGWIGAADSVKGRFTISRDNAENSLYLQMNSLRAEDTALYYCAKVGRGGGFFDYWGQGTLVTVSS | n.d. n.d. n.d. | n.d. | 2 of 9 (4.45) |

Again, the first 2 entries without any signal:

| VH | log10 Kd, replicates | log10 Kd (nM), mean | control signals |
|---|---|---|---|
| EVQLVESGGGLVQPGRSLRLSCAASLFTFDDYAMGWVRQAPGKGLEWVSGISWNSGSIGEADSVKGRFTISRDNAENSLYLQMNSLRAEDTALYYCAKVGRGGGYFDYWGQGTLVTVSS | n.d. n.d. n.d. | n.d. | 2 of 9 (2.56) |
| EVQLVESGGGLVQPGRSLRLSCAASGFTFDDYAMKWVRQAPGKGLEWVSGISWNSGSIGYADSWKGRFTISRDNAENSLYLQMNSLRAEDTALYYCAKVGRGGGYMDYWGQGTLVTVSS | n.d. n.d. n.d. | n.d. | 0 of 9 |

As a blank, each scFv also met three strains without target: over library AAYL51, 21% of these pairings were detected, typically at 4.54 and seldom below 3.26. For each scFv, signals with the empty controls are counted beside the result, with their mean in brackets.